## Yeast mating assay B: variants of the scFv Ab-14

The measurements come from Li et al. 2023 (doi:10.1038/s41467-023-39022-2) through the FLAb antibody collection.

Binding partner: SARS-CoV-2 spike HR2 peptide, sequence PDVDLGDISGINAS.

Ab-14 is the parent antibody, in scFv form: VH, then a 15-residue (Gly4Ser)3 linker, then VL. The light chain is unchanged in all variants.
VH: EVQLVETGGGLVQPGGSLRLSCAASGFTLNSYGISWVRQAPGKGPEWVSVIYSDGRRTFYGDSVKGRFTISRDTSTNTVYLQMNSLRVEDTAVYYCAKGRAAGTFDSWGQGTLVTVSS
VL: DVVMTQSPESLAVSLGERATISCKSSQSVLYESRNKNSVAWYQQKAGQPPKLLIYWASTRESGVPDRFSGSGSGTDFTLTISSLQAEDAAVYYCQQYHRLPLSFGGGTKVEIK

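This is the validation round: designs drawn from the data on random variants, tested in the same kind of assay. Several design methods are mixed in this list. Affinity was read by AlphaSeq, a pooled yeast mating assay with surface-displayed partners. Binding brings cells together so that they mate, and sequencing counts the barcode pairs among the diploids. Scores were corrected for input abundance and mapped to Kd with protein pairs of known affinity run in the same pool. Each pool was mated in six replicate cultures.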

The parent's heavy chain CDRs are GFTLNSYGIS, VIYSDGRRTFYGDSVK, GRAAGTFDS; each variant's own CDRs replace them letter for letter.
Scale: log10 of Kd in nM, estimated from mating counts; low values are strong binders.
Averages over replicates are reported, and they cover detected replicates only.
"not detected" marks a missing value. The strain was present, yet no cells mated with the target were sequenced in any replicate, which points to weak or no binding.
Entries are sorted by rising average, undetected variants last.

CDR-H1	CDR-H2	CDR-H3	mean, log10 nM	seen in
GFDLNEYGIS	VIYADGQRSYYADSVK	GNVAGTFDV	-0.84	6/6
GFDLNEYGIS	VIYADGRRTFYADSVK	GRVAGTFDQ	-0.74	6/6
GFDLNEYGIS	VIYADGSRTAYTDSVK	GENAGTFDI	-0.71	5/6
GFDLNEYGIS	VIYADGRRTFYADNVK	GQNAGTFDS	-0.67	6/6
GFDLNEYGIS	VIYADGVRTAYADTVK	GNQAGTFDV	-0.65	6/6
GFDLNEYGIS	VIYADGLRTAYADSVK	GQNAGTFDL	-0.59	6/6
GFDLNEYGIS	VIYADGRRTFYTDSVK	GEFAGTFDQ	-0.57	6/6
GFDLNEYGIS	VIYADGQRTFYADSVK	GNQAGTFDV	-0.49	6/6
GFDLNEYGIS	VIYADGMRTAYADSVK	GENAGTFDL	-0.47	6/6
GFDLNEYGIS	VIYADGMRTAYSDSVK	GEVAGTFDE	-0.45	6/6
GFDLNEYGIS	VIYADGRRTFYTDSVK	GNEAGTFLV	-0.44	6/6
GFDLNEYGIS	VIYADGVRTAYADSVK	GNQAGTFDI	-0.43	6/6
GFELNEYGIS	VIYSDGRRTFYGDSVK	GRMAGTFDT	-0.40	5/6
GFQLDEYGIS	VIYADGKRTFYADSVK	GEVAGTFDV	-0.40	6/6
GFEIQEYGIS	VIYADGRRTAYAENVK	GTLGGTFDT	-0.28	6/6
GFELNSYGIS	VIYADGRRTFYGDSVK	GQAAGTFDS	-0.24	6/6
GFSLNSYGIS	VIYSDGRRTFYGDDVK	GRTAGTFDS	-0.22	6/6
GFDLDEYGIS	VIYADGVRTAYADSVK	GETAGTFDI	-0.22	6/6
GFDLEDYGIS	VIYADGRRTAYIDSVK	GEAAGTFDF	-0.12	6/6
GFSLNSYGIS	VIYSDGKRTFYADSVK	GNAAGTFDS	-0.09	6/6
GFTLNSYGIS	VIYSDGRRTFYGDNVK	GQTAGTFDK	-0.03	1/6
GFSLNSYGIS	VIYSDGRRTAYGDSVK	GRAAGTFDT	-0.01	6/6
GVDLNQYGIS	VIYSDGRRTFYGDSVK	GRAAGTFDS	0.19	6/6
GFTLESYGIS	VIYADGRRTFYGDSVK	GEAAGTFDS	0.26	6/6
GFTLNSYGIS	VIYSDGVRTFYSDSVK	GNAAGTFDS	0.30	6/6
GFGLNEYGIS	VIYSDGRRTFYHDSVK	GRAAGTFDQ	0.34	6/6

Continued, with the values leading:

mean, log10 nM	seen in	CDR-H1	CDR-H2	CDR-H3
0.46	6/6	GFDLNEYGIS	VIYADGSRTAYADKVK	GEVAGTFDV
0.52	6/6	GFSLNEYGIS	VIYSDGRRTFYGDSVK	GQAAGTFDM
0.58	6/6	GFDLNEYGIS	VIYADGMRTAYSDSVK	GEQAGTFDI
0.85	6/6	GFTLNEYGIS	VIYSDGRRTFYIDSVK	GRAAGTFDK
0.89	6/6	GFTLNSYGIS	VIYSDGRRTFYVDDVK	GQAAGTFDT
0.95	6/6	GFTLNSYGIS	VIYSDGFRTFYGDSVK	GREAGTPDS
1.03	6/6	HFTLNSYGIS	VIYADGRRTFYGDSVK	GRAAGTFDS
1.24	1/6	GFNLNSYGIS	VIYSDGRRTFYADSVK	GHAAGTFDS
1.31	2/6	GFELNSYGIS	VIYSDGRRTFYIDSVK	GWAAGTFDS
1.41	6/6	GFSLNNYGIS	VIYSDGRRTFYGDSVK	GQAAGTFDN
1.51	4/6	WFDLNSYGIS	VIYSDGRRTFYIDSVK	GNAAGTFDS
1.84	1/6	GFQLNSYGIS	VIYSDGRRTFYVDSVK	GRLAGTFDS
2.18	3/6	DFALESYGIS	VIYSDGRRTFYGDSVK	GRAAGTFDS
2.48	1/6	GFTLNSYGIS	VIYSDGRRTFYQDSVK	GRHAGSFDS
2.59	1/6	GFTLNSYGKS	VIYADGRRTFYGDDVK	NRAAGTNKS
not detected	0/6	GFTANSYGIS	VIYSDGRRTFYGDSVR	GRAIATFDS
not detected	0/6	GNTLNSYGIS	VIYSDGRRTFYLDSVK	GRSAGTFDS
not detected	0/6	GFTLDSYGIS	VIYSDGRRTFYGDSVK	GRAAGTFFQ
not detected	0/6	GFTLDSYGIS	VIYSDGIRTFYGDSVK	GRAAGTALS
not detected	0/6	GFMLNSYGIS	VIYSDGRRVFYGDRVK	GRAALTFDS
not detected	0/6	GFDLGEYGIS	VIYADGRRTAYQDSVK	GLNEGMLVI
not detected	0/6	GFTLNSYGIS	VIYSDGRRTFYGDSVK	GRAAGTPDS
not detected	0/6	GFQLNEYGIS	VIYSDGRRTFYGDSVK	GRAAVTFDQ
not detected	0/6	GFDLQDYGIS	VIYADGVRTQYVNNVK	GKWGATILV
not detected	0/6	GKDLEEYGIS	VIYADGVRTAYLDQVK	GESGGAYYT
not detected	0/6	GFTLNEYGIS	VIYSDGRRTFYGDSVK	GRAALTFDT
not detected	0/6	GFDLNSYGIR	VIYSDGIRTFYRDSVK	GRAAFTFDS

Top 8 of the variants detected in all replicates, tightest first:

| CDR-H1 | CDR-H2 | CDR-H3 | mean, log10 nM | seen in |
|---|---|---|---|---|
| GFDLNEYGIS | VIYADGQRSYYADSVK | GNVAGTFDV | -0.84 | 6/6 |
| GFDLNEYGIS | VIYADGRRTFYADSVK | GRVAGTFDQ | -0.74 | 6/6 |
| GFDLNEYGIS | VIYADGRRTFYADNVK | GQNAGTFDS | -0.67 | 6/6 |
| GFDLNEYGIS | VIYADGVRTAYADTVK | GNQAGTFDV | -0.65 | 6/6 |
| GFDLNEYGIS | VIYADGLRTAYADSVK | GQNAGTFDL | -0.59 | 6/6 |
| GFDLNEYGIS | VIYADGRRTFYTDSVK | GEFAGTFDQ | -0.57 | 6/6 |
| GFDLNEYGIS | VIYADGQRTFYADSVK | GNQAGTFDV | -0.49 | 6/6 |
| GFDLNEYGIS | VIYADGMRTAYADSVK | GENAGTFDL | -0.47 | 6/6 |

In the paper, a design with two or fewer of six values counts as a poor binder.
Of ten entries with the parent sequence, four were seen in most replicates (averages 0.34 to 2.37), three in one and three in none, so single entries are noisy.
Background: pairings of all heavy chain designs with three empty control strains gave a value in 1% of cases (median 2.08, 5th percentile 0.84). Values in that range, when seen in few replicates, are hard to tell from nonspecific mating.
The range of this assay differs from that of the first round, and the authors advise against merging the two.